These results are taken from patent US20160051704A1, “MOLECULAR IMAGING PROBES FOR LUNG CANCER INTRAOPERATIVE GUIDANCE” (H. Lee Moffitt Cancer Center and Research Institute, Inc., priority 2013, published 2016).

As a reminder, the Kd is a measure of binding affinity in units of concentration. A lower Kd goes with higher affinity.

For the assay, the target named is T1, delta opioid receptor (δOR) on HCT-116/δOR cells, P41143.
T1 chain: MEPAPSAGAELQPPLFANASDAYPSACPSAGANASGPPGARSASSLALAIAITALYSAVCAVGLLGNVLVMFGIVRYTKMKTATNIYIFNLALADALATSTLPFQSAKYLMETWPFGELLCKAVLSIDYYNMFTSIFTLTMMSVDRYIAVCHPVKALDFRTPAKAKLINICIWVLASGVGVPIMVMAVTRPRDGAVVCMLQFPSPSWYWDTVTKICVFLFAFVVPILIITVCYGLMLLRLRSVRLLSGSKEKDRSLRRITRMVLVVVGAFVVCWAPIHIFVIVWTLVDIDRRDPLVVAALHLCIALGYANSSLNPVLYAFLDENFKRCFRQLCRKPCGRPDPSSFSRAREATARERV
Briefly: in cyto time-resolved fluorescence saturation binding on HCT-116/δOR cells.

B1: Europium (Eu)-diethylenetriaminepentaacetic acid (DTPA)[D-Pen2, L-Cys5] enkephalin (DPLCE) (peptide)
chain: YCGFC
modifications: not checked
Take B1: the dissociation constant (Kd) came to 51.8 nM.
